Article PMC5640878, “The GlyR Extracellular β8–β9 Loop – A Functional Determinant of Agonist Potency” (Frontiers in Molecular Neuroscience, 2017)

The chains behind the UniProt entries cited, without tags or fusion partners. Where a name states a change or a piece, a line headed by the entry shows the natural chain unless it says otherwise. Residues count along the entry.
UniProt P48167, 23-497: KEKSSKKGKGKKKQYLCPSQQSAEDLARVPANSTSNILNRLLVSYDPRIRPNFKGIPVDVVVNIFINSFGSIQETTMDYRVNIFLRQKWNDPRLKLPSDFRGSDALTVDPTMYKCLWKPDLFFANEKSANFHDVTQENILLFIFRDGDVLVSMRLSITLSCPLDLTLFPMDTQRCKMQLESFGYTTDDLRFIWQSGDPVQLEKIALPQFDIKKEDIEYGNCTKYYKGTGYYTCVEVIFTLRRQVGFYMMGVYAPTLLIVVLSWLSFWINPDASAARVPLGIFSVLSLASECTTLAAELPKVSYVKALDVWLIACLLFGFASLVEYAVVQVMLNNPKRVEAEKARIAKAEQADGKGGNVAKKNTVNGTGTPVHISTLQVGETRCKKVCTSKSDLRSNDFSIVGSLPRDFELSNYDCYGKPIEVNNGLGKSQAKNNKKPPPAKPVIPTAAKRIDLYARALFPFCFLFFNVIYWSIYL
UniProt Q64018, 29-457 Q205E: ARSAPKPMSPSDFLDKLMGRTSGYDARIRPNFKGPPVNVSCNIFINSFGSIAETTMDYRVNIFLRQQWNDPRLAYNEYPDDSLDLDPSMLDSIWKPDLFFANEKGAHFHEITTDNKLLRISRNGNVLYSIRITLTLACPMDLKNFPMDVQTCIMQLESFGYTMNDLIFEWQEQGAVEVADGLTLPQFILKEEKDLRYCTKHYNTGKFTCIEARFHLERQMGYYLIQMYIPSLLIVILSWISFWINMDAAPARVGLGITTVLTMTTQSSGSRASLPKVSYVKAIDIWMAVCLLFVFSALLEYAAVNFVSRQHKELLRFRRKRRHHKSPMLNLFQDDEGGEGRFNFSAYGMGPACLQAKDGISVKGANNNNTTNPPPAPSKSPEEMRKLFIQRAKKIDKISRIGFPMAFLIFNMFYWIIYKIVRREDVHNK

Molecular target: GlyRα1^Q177Eβ (UniProt P48167+Q64018, Q205E)
Assay: whole-cell patch clamp recordings of transfected HEK293 cells
Details: read-out: EC50 glycine; HEK293, α1:β 1:2, whole-cell currents, 1–3000 μM glycine

Compound: NCC(=O)O [glycine]
- EC50: 109 ± 7 µM
